# Measurements from ChEMBL document CHEMBL3232806 (J Med Chem, 2014).
# Target: T1, NAD-dependent protein deacetylase sirtuin-2 (Homo sapiens) (UniProt Q8IXJ6)
# T1 sequence (whole entry): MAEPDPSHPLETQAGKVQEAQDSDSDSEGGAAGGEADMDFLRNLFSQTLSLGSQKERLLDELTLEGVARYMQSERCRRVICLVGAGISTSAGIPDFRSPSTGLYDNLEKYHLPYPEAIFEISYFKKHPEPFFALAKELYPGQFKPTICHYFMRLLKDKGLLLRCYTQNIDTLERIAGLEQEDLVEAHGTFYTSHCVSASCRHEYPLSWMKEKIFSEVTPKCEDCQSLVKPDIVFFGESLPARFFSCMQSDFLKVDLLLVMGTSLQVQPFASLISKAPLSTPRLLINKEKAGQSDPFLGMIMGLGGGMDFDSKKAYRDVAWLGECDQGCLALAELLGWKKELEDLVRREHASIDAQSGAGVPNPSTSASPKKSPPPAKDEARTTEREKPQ
# Experiment: Inhibition of SIRT2 (unknown origin) at 50 uM by luminescence assay relative to control
# Method in brief: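 Single-point inhibition at 50 μM compound was measured by the luminescent SIRT-Glo assay. SIRT1 was human His6-tagged (C-terminal), expressed in E. coli BL21-DE3 with IPTG induction and purified on Ni-NTA. SIRT2 was obtained commercially.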
smiles,measurement,value
O=c1[nH]c(=S)[nH]c(-c2ccccc2)c1Cc1c(O)ccc2ccccc12,inhibition,46%
